# Yeast mating assay 2: variants of the scFv Ab-95

Target: peptide PDVDLGDISGINAS, taken from heptad repeat 2 (HR2) of SARS-CoV-2 spike.

Parent scFv Ab-95: VH joined to VL by the linker GGGGSGGGGSGGGGS. Changes lie in the light chain CDRs alone.
VH: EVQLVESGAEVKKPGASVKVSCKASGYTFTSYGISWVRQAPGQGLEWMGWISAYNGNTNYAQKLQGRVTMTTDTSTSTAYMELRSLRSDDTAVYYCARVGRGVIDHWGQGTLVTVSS
VL: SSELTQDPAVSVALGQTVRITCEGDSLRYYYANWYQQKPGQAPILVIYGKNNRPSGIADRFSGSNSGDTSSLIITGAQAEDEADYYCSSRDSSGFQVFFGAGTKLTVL

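Phage display of a naive human antibody library on the peptide gave the parent. The library (AAYL52) carries one to three amino acid substitutions per variant, with no insertions or deletions. The scFvs were displayed on barcoded MATa yeast, the peptide on MATalpha yeast. Pairs that bind mate more often; barcode pairs of the diploids are counted by sequencing. Each replicate has its own calibration line, from reference interactions of the BCL2 family. There are three technical replicates.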

The parent's light chain CDRs are EGDSLRYYYAN, GKNNRPS, SSRDSSGFQVF; each variant's own CDRs replace them letter for letter. Numbers give log10(Kd / nM), so 0 is 1 nM and 3 is 1 µM. Smaller is tighter. Averages over replicates are reported, and they cover detected replicates only. Where no diploid with the target was found in that replicate, the entry reads "nd": below detection, most likely a poor binder, though not proof of it. Nonspecific signal, from three strains lacking the peptide, appeared in 28% of pairings of library AAYL52, centred on 3.91 (5% of these signals below 2.90); values are not corrected for it. Also given: how often the same scFv was detected with the empty control strains, with their mean in brackets.

{"CDR-L1": "VGDSSRYYYWN", "CDR-L2": "GKNNRPS", "CDR-L3": "SSRDSSGFQVF", "replicates, log10 nM": "3.44 / nd / nd", "log10 Kd (nM), mean": "3.44", "signal with controls": "5/9 (3.74)"}
{"CDR-L1": "EGDSLRYYDAN", "CDR-L2": "GKNNRCS", "CDR-L3": "SSRDSSGFQVM", "replicates, log10 nM": "2.16 / 1.99 / 2.21", "log10 Kd (nM), mean": "2.12", "signal with controls": "2/9 (4.27)"}
{"CDR-L1": "EGDSLRYYYAN", "CDR-L2": "GKNNRPS", "CDR-L3": "CSRFSSGFQVL", "replicates, log10 nM": "3.14 / 2.69 / 2.32", "log10 Kd (nM), mean": "2.72", "signal with controls": "1/9 (2.98)"}
{"CDR-L1": "EGDSLRYYYAN", "CDR-L2": "GNNNRPR", "CDR-L3": "SSRDSSGFQVF", "replicates, log10 nM": "2.26 / 2.20 / 1.76", "log10 Kd (nM), mean": "2.07", "signal with controls": "1/9 (4.55)"}
{"CDR-L1": "EGDSSRYYYAN", "CDR-L2": "GRNNRPS", "CDR-L3": "SSRDSSGFQVF", "replicates, log10 nM": "3.34 / 4.07 / 3.36", "log10 Kd (nM), mean": "3.59", "signal with controls": "4/9 (4.05)"}
{"CDR-L1": "EGRSLRYYMPN", "CDR-L2": "GKNNRPS", "CDR-L3": "SSRDSSGFQVF", "replicates, log10 nM": "1.99 / 1.63 / 1.55", "log10 Kd (nM), mean": "1.72", "signal with controls": "2/9 (4.48)"}
{"CDR-L1": "EWDSLRYYGAN", "CDR-L2": "RKNNRPS", "CDR-L3": "SSRDSSGFQVF", "replicates, log10 nM": "3.94 / 5.56 / nd", "log10 Kd (nM), mean": "4.75", "signal with controls": "0/9"}
{"CDR-L1": "MGDSLRYYYAN", "CDR-L2": "NKNNRPS", "CDR-L3": "SSRDSNGFQVF", "replicates, log10 nM": "3.33 / 2.59 / 4.13", "log10 Kd (nM), mean": "3.35", "signal with controls": "2/9 (3.78)"}
{"CDR-L1": "EGDCLRYYSAN", "CDR-L2": "GKNRRPS", "CDR-L3": "SSRDSSGFQVF", "replicates, log10 nM": "4.55 / 3.49 / 3.45", "log10 Kd (nM), mean": "3.83", "signal with controls": "5/9 (4.06)"}
{"CDR-L1": "EQDSLRYYYAN", "CDR-L2": "GKYNRPT", "CDR-L3": "SSRDSSGFQVF", "replicates, log10 nM": "nd / 4.75 / 3.79", "log10 Kd (nM), mean": "4.27", "signal with controls": "3/9 (3.46)"}
{"CDR-L1": "EGDVRRYYYAN", "CDR-L2": "GKNNRPS", "CDR-L3": "SSRDSSGAQVF", "replicates, log10 nM": "3.08 / 2.77 / 4.76", "log10 Kd (nM), mean": "3.54", "signal with controls": "3/9 (4.40)"}
{"CDR-L1": "EGDFLRYYYAN", "CDR-L2": "GKNPRPS", "CDR-L3": "SSRDSSGFLVF", "replicates, log10 nM": "nd / nd / nd", "log10 Kd (nM), mean": "nd", "signal with controls": "2/9 (3.81)"}
{"CDR-L1": "EGDSLRNYYAT", "CDR-L2": "GKNHRPS", "CDR-L3": "SSRDSSGFQVF", "replicates, log10 nM": "4.67 / nd / nd", "log10 Kd (nM), mean": "4.67", "signal with controls": "5/9 (4.13)"}
{"CDR-L1": "EGDSLRYYMAN", "CDR-L2": "GKNNRPS", "CDR-L3": "SYRDSSGFQKF", "replicates, log10 nM": "1.12 / 0.80 / 0.33", "log10 Kd (nM), mean": "0.75", "signal with controls": "2/9 (3.81)"}
{"CDR-L1": "EGDSLRYYYAN", "CDR-L2": "GKFFRPS", "CDR-L3": "QSRDSSGFQVF", "replicates, log10 nM": "5.63 / 3.87 / nd", "log10 Kd (nM), mean": "4.75", "signal with controls": "7/9 (3.93)"}
{"CDR-L1": "EGDSLRYYYAN", "CDR-L2": "GKNNYPS", "CDR-L3": "SSRVSSGFLVF", "replicates, log10 nM": "4.50 / 4.25 / nd", "log10 Kd (nM), mean": "4.38", "signal with controls": "4/9 (3.95)"}
{"CDR-L1": "EGDSLRYYYAN", "CDR-L2": "SKNNAPS", "CDR-L3": "SSRDSSLFQVF", "replicates, log10 nM": "3.71 / 5.05 / nd", "log10 Kd (nM), mean": "4.38", "signal with controls": "0/9"}
{"CDR-L1": "EGDSLRYYYAN", "CDR-L2": "GFGNRPK", "CDR-L3": "SSRDSSGFQVF", "replicates, log10 nM": "3.27 / 3.13 / 3.01", "log10 Kd (nM), mean": "3.14", "signal with controls": "3/9 (4.19)"}
{"CDR-L1": "EGDSLRYYYAN", "CDR-L2": "GKNNEPS", "CDR-L3": "SSFDSNGFQVF", "replicates, log10 nM": "3.91 / nd / nd", "log10 Kd (nM), mean": "3.91", "signal with controls": "3/9 (3.98)"}

2 of these entries, quoted again:

CDR-L1	CDR-L2	CDR-L3	replicates, log10 nM	log10 Kd (nM), mean	signal with controls
EWDSLRYYGAN	RKNNRPS	SSRDSSGFQVF	3.94 / 5.56 / nd	4.75	0/9
EGDCLRYYSAN	GKNRRPS	SSRDSSGFQVF	4.55 / 3.49 / 3.45	3.83	5/9 (4.06)

The measurements come from Engelhart et al. 2022 (doi:10.1038/s41597-022-01779-4) through the FLAb antibody collection.